According to patent US20240307386A1 (priority 2018, published 2024):

Experiments:
[1] = target: NOP (Nociceptin Receptor) (Homo sapiens (Human), UniProt P41146); assay: Receptor binding, NOP
Delta opioid = Delta opioid (Homo sapiens (Human), UniProt P41143); assay: Receptor binding, Delta opioid
Kappa opioid = Kappa opioid (Homo sapiens (Human), UniProt P41145); assay: Receptor binding, Kappa opioid; conditions: @ 100 nM

## O=C1CN2c3c(cccc3[C@@H]3CN(CCCOc4ccc(F)cc4)CC[C@@H]32)N1 [Example 1, (6bR,10aS)-8-(3-(4-fluorophenoxy)propyl)-6b,7,8,9,10,10a-hexahydro-1H-pyrido[3′,4′:4,5]pyrrolo[1,2,3-de]quinoxalin-2(3H)-one]
[1]
  maximum inhibition: No inhibition
Delta opioid
  maximum inhibition: No inhibition
Kappa opioid
  maximum inhibition: 16% @
